{"sequences": {"note": "Sequences of proteins named here, by UniProt entry; tags and fusion partners are left off. Residues count along the entry.", "UniProt P02769, 25-607": "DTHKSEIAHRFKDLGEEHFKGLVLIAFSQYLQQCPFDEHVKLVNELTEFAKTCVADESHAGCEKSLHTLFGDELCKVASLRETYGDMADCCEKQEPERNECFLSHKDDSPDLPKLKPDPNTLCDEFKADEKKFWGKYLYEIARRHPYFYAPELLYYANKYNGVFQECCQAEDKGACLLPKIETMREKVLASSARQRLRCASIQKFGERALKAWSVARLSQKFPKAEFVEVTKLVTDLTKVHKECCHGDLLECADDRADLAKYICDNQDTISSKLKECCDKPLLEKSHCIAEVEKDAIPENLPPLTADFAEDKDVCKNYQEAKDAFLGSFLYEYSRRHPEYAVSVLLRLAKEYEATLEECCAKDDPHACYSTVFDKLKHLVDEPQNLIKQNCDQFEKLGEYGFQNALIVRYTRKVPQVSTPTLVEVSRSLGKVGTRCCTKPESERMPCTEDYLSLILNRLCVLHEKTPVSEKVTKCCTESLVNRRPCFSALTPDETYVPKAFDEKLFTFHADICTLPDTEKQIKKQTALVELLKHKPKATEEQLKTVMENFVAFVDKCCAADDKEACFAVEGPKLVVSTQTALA"}, "source": "paper PMC11057469", "about": "“Quantitative cross-species comparison of serum albumin binding of per- and polyfluoroalkyl substances from five structural classes” (Toxicological Sciences, 2024)", "target": "Bovine serum albumin (BSA) (Bos taurus, UniProt P02769)", "experiment": "biochemical", "method": "A minimum of 2 independent plates were run for each protein-ligand combination, with 3 replicates per sample on each plate. Controls on each plate included a no protein control, matching vehicle control (no ligand), and 3 concentrations of OA (1, 2, 3 mM) and/or PFHxA (0.3, 1, 3 mM) as positive controls. The concentration of albumin that yielded maximal signal-to-noise ratio was optimized for each species. […] For concentration-response analyses, PFAS stock solutions were serially diluted into HBS.", "data": [{"smiles": "O=S(=O)(O)C(F)(F)C(F)(F)C(F)(F)C(F)(F)C(F)(F)C(F)(F)C(F)(F)C(F)(F)F", "note": "[PFOS, perfluorooctanesulfonic acid]", "values": [{"measurement": "Kd", "result": 860, "unit": "µM"}]}]}
